# Measurements: US11708346B2, “Treatment and prevention of neuropathic pain with P2Y14 antagonists” (Saint Louis University, priority 2019, dated 2023)
# By UniProt entry, the sequences of proteins in these tests, tags left out. Where a name states a change or a piece, a line headed by the entry shows the natural chain unless it says otherwise.
# UniProt P35348: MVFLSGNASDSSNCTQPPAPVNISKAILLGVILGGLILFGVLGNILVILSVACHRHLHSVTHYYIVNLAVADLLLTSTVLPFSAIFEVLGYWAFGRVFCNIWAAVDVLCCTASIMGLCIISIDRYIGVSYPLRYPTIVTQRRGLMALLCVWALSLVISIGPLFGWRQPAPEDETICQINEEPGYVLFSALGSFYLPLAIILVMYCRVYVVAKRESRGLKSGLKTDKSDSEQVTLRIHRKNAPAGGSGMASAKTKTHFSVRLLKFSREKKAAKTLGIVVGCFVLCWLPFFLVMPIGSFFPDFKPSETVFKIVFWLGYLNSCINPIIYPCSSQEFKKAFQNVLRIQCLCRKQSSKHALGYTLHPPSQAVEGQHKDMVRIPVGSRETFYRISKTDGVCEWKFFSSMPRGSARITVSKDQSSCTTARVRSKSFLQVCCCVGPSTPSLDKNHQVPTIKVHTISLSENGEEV
# UniProt P47898, whole entry, species assumed: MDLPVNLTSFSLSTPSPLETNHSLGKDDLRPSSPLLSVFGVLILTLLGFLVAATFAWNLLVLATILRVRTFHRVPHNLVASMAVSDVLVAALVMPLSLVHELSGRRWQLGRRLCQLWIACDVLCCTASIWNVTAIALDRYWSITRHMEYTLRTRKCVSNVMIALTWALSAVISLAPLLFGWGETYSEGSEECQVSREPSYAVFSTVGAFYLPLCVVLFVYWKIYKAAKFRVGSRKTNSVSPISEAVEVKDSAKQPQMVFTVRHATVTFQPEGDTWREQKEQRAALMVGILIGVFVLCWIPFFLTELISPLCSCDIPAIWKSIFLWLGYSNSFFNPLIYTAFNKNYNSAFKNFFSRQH
# UniProt P18825, whole entry: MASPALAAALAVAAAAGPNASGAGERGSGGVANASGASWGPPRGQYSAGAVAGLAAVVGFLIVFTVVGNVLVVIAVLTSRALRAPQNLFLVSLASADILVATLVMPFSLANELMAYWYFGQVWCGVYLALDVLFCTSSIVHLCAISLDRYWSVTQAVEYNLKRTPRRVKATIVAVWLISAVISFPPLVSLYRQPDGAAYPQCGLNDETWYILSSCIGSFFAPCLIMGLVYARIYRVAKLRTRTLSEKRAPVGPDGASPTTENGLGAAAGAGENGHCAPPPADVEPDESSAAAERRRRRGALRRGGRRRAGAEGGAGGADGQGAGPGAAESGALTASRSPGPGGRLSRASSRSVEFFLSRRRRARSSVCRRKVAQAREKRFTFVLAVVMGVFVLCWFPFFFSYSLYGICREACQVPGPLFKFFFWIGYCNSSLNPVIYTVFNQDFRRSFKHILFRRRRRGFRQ
# UniProt P21728, whole entry: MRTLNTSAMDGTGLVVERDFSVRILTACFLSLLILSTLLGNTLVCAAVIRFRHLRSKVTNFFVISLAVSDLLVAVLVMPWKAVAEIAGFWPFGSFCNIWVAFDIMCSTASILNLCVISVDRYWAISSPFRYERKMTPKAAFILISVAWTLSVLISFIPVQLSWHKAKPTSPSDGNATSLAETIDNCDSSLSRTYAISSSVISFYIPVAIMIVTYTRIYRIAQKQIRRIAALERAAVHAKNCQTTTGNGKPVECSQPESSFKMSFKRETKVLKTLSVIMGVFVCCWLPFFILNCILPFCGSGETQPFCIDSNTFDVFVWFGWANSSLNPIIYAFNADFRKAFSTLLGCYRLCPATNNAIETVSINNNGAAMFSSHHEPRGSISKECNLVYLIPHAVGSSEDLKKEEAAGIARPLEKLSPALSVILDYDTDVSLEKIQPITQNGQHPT
# Legend:
# α1A = α1A (Homo sapiens, UniProt P35348); details: read-out: Ki α1A; ± SEM
# 5HT5A = 5HT5A (Homo sapiens, UniProt P47898); details: read-out: Ki 5HT5A; ± SEM
# α2C = α2C (Homo sapiens, UniProt P18825); assay: PDSP off-target binding; details: ± SEM
# D1 = D1 (Homo sapiens, UniProt P21728); details: read-out: Ki D1; ± SEM
# mP2Y14R = molecular target: T1, mP2Y14R (Mus musculus, UniProt Q9ESG6); details: read-out: Mouse P2Y14R binding affinity (IC50)
# T1 sequence (Q9ESG6 1-338): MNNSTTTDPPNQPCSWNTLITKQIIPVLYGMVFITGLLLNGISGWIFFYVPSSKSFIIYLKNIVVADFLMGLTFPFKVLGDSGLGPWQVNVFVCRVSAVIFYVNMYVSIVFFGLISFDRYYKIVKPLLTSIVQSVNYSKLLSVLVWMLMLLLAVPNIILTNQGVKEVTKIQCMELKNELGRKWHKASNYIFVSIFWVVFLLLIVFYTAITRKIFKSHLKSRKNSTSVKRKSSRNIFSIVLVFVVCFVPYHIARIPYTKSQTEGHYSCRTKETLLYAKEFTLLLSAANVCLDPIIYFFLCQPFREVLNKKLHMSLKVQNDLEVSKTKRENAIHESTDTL
smiles,measurement,setting,value
"CC(=O)N1CCC(c2ccc(-c3cc(C(=O)O)cc4cc(-c5ccc(C(F)(F)F)cc5)ccc34)cc2)CC1 [Compound 4, 4-(4-(1-(Acetyl)piperidin-4-yl)phenyl)-7-(4-(trifluoromethyl)phenyl)-2-naphthoic acid]",Ki,α1A,3.14 µM
same,Ki,5HT5A,2.34 ± 1.25 µM
same,Ki,α2C,4.31 µM
same,Ki,D1,1.39 µM
O=C(O)c1cc(-c2ccc(C3CCNCC3)cc2)cc(-n2cc(-c3ccc(C(F)(F)F)cc3)nn2)c1 [Compound 6],IC50,mP2Y14R,0.142 ± 0.058 µM
